Compound activity (PubChem BioAssay)
miR-21 reporter – miR-21 reporter, rising signal; HeLa miR-21 FLuc reporter, luciferase, 48 h; Potency, µM (titrated, usually from 38.3 µM); 340,000 tested, under 10 active; AID 2288; active = well fitted rising curve with a large enough effect; inconclusive = small, poorly fitted or top-dose-only effect; inactive = no such curve, though single readings can be large or run the other way;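 also: miR-21 action dims this reporter so a rising signal means less miR-21 action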
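HeLa cells stably expressing CMV-driven firefly luciferase with a downstream miR-21 binding sequence, endogenously expressing miR-21, were treated with titrations (up to about 40uM final) for 48 hours at 37 degree Celsius. Luciferase luminescence was read after lysis.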
Nrf2 activator – activators of Nrf2 (ARE) signaling; AREc32 ARE-luciferase reporter (MCF7-derived line), luminescence, 24 h; Potency, µM (titrated, usually from 46.1 µM), actives largely listed as activators; 410,000 tested, 0.31% active; AID 624171; note: nearly all actives have a fitted effect of over 65% in size
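AREc32 cells carrying an ARE-driven firefly luciferase, 1000 cells/well in OPTI-MEM with 5% FBS, dosed after overnight attachment and incubated 24 hr at 37 deg C. Steady-Glo luminescence read after 30 min at RT.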
Nrf2 block – inhibitors of Nrf2 signaling | A549 ARE-Fluc reporter, luciferase luminescence, 18-24 h | Potency, µM (series often up to 46 µM), actives largely listed as inhibitors | 360,000 tested, 2.1% active | AID 504444; note: nearly all actives have a fitted effect of over 60% in size
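A549 ARE_Fluc cells, 5000/well, 5% FBS OPTI-MEM; compounds in dose-response, 18-24 h at 37 °C/5% CO2; CellTiter-Fluor viability read (Ex 405/Em 525), then BugLite luciferase luminescence = Nrf2 activity.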
A549 tox – A549 cytotoxicity, counter-screen for Nrf2 inhibitors; A549 ARE-Fluc cells, CellTiter-Fluor viability, 18-24 h; Potency, µM (doses to about 46 µM), hits mostly inhibitors; 390,000 tested, 0.16% active; AID 504648
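A549 ARE_Fluc cells in 5% FBS OPTI-MEM were exposed to compounds in concentration-response for 18-24 h at 37 deg C. Viability was read by CellTiter-Fluor fluorescence (Ex 405/Em 525) after 30 min, before the luciferase read.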
Mito fusion yeast – blocks mitochondrial division or promotes mitochondrial fusion; S. cerevisiae fusion-defective mutant growth rescue, CellTiterGlo 48 h; AID 485298; Potency, µM (top dose mostly 46.1 µM), actives largely listed as activators; 320,000 tested, 0.23% active; note: nearly all actives have a fitted effect of over 45% in size
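S. cerevisiae fusion-defective temperature-sensitive mutants (e.g. fzo1-1, mgm1-5) grown 48 h at 37C in YPEG (ethanol/glycerol non-fermentable) medium with 23 nl compound per well; growth rescue read as CellTiterGlo luminescence.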
Numbers stand for hits; i = inactive; ? = inconclusive; nt = not tested or not shown; [ ] = dose if it differs, or a comment. Rows were chosen to be rich in hits. Some 2.3% of all compounds tested hit in one or more screens of this group. Unless noted, calls come from the whole dose curve; as a rule, active = well fitted curve in the direction sought with a large enough effect; inconclusive = small, poorly fitted or top-dose-only effect, or another doubt; inactive = no such curve, though single readings can be large; an effect the other way counts as inactive or inconclusive.

SMILES	miR-21 reporter	Nrf2 activator	Nrf2 block	A549 tox	Mito fusion yeast
COc1ccc(CN(Cc2ccccc2)C(=O)c2ccccc2N)cc1COc1ccc(NC(C)=O)cc1	nt	nt	i	i	nt
Cn1nc(CC(=O)Nc2ccc(N3CCN(C(=O)OC(C)(C)C)CC3)cc2)c2ccccc2c1=O	i	i	10µM	i	i
CCOc1ccc(-c2cn3c(n2)sc2cc(C(=O)NCCc4ccc(OC)cc4OC)ccc23)cc1	i	i	i	i	nt
Cc1c(C(=O)Nc2ccncc2)sc2nc(-c3ccccc3)cn12	i	i	10µM	i	i
O=C(CSc1n[nH]c(=O)n1C1CC1)Nc1ccccc1	i	i	i	i	i
O=C(CSc1n[nH]c(=O)n1C1CC1)Nc1cc(Cl)ccc1Oc1ccccc1	?	i	18µM	?	i
O=S1(=O)N=C(OCc2ccccc2)c2ccccc21	nt	nt	?	i	nt
O=C(Cc1ccccc1)NCC(=O)OCC(=O)c1cccc2ccccc12	nt	nt	i	i	nt
CN(C)CCNc1ncnc2ccc(-c3ccc4c(c3)OCO4)cc12	nt	nt	i	i	nt
COc1ccc(C2NC(c3ccc(OC)cc3)C(c3ccccc3)C(=O)C2c2ccccc2)cc1 (stereo not drawn)	i	i	i	i	i
COc1ccc([C@@H]2C(C#N)=C(N)S[C@@H](c3ccccc3)[C@@H]2[N+](=O)[O-])cc1	i	i	21µM	i	?
Cn1nc(C(=O)Nc2cccc(Cl)c2)cc1C(=O)Nc1cccc(Cl)c1	i	i	13µM	?	i
Cn1nc(C(=O)Nc2ccc(Cl)cc2)cc1C(=O)Nc1ccc(Cl)cc1	i	i	i	i	i
Cn1nc(-c2ccccc2F)c2cc(C(=O)NCCc3ccc(Cl)cc3)sc21	i	i	?	i	nt
CCCN1CNc2c(c(=O)[nH]c(=S)n2CCc2cc(Cl)cc(Cl)c2)C1	nt	nt	i	i	nt
CCN(CC)CCN1C(=O)c2ccccc2NC1c1ccc(OC)c(COc2ccc(NC(C)=O)cc2)c1 (stereo not drawn)	nt	nt	i	i	nt
CCOC(=O)[C@@H]1[C@H]2COc3cc(OC)ccc3[C@@H]2N2C(=O)N(c3ccc(C(F)(F)F)cc3)C(=O)[C@@]12C	i	i	i	i	i
CCOC(=O)[C@@H]1[C@H]2COc3cc(OC)ccc3[C@H]2N2C(=O)N(c3ccc(C(F)(F)F)cc3)C(=O)[C@]12C	nt	i	21µM	i	nt
COc1cccc(-c2nc(-c3ccc(-c4ccccc4)nc3OC)no2)c1	i	i	?	i	nt
CC(C)(CNc1ccc(S(=O)(=O)C(F)(F)F)cc1[N+](=O)[O-])N1CCOCC1	i	i	23µM	i	i
CC(C)(CNc1ccc([N+](=O)[O-])cc1C#N)N1CCOCC1	i	i	i	i	i
Cn1nc(-c2ccccc2F)c2cc(C(=O)NCc3ccccc3Cl)sc21	i	i	i	i	nt
O=C1c2ccccc2C(=O)N1c1ccccn1	nt	nt	?	i	nt
Cc1noc(C)c1S(=O)(=O)N(C)C[C@H]1Oc2c(NC(=O)Nc3ccc(C(F)(F)F)cc3)cccc2C(=O)N([C@H](C)CO)C[C@@H]1C	nt	i	21µM	i	nt
Cc1noc(C)c1S(=O)(=O)N(C)C[C@H]1Oc2c(NC(=O)Nc3ccccc3)cccc2C(=O)N([C@H](C)CO)C[C@@H]1C	nt	i	i	i	nt
SMILES	miR-21 reporter	Nrf2 activator	Nrf2 block	A549 tox	Mito fusion yeast
C[C@H](CO)N1C[C@H](C)[C@@H](CN(C)CC2CCCCC2)Oc2c(NC(=O)CCC(F)(F)F)cccc2C1=O	nt	i	18µM	i	nt
CN(C)c1cccc(S(=O)(=O)N2CCCN(S(=O)(=O)c3ccc4c(c3)OCCO4)CC2)c1	nt	nt	i	i	nt
COc1cc(OC)c(NC(=O)Nc2nnc(N(C)C3CCCCC3)s2)cc1Cl	i	i	i	i	nt
O=C(CSc1nc2ccccc2c(=O)[nH]1)Nc1ccc([N+](=O)[O-])cc1	nt	i	16µM	i	nt
COc1ccc(NC(=O)CSc2nc3sc(C)cc3c(=O)n2C)c(OC)c1	i	i	18µM	i	i
O=C(CSc1nc2ccccc2c(=O)[nH]1)Nc1ccc(C(=O)O)cc1	i	i	i	i	i
COc1ccc(NC(=O)CSc2nc3sc(C)cc3c(=O)n2C)cc1	i	i	i	i	i
Cc1cccc(NC(=O)CSc2nc3sc(C)cc3c(=O)n2C)c1	nt	i	23µM	i	nt
Cn1c(SCC(=O)Nc2ccccc2)nc2ccccc2c1=O	i	i[9.22 µM]	21µM	i	i
